The list shows a part of the results.
Each compound was assayed on A. baumannii ATCC 17978 (assay: relative growth (fraction of control); higher = less inhibition). Conditions: 50 µM.
In the case of `COc1ccc([Si](C)(C)[C@@H]2[C@@H](CC(=O)N3Cc4ccccc4C[C@H]3CO)O[C@]3(C(=O)N(Cc4ccc(N5CCC5=O)cc4)c4ccccc43)[C@H]2C)cc1`, the relative growth is reported as 0.785. `O=C(COc1ccccc1)N1CCNC1=O` was tested, and the relative growth was 1.04. `CC(C)Nc1ncccn1` gave a relative growth of 0.878. For `CO[C@H]1CN(C)C(=O)c2ccc(NC(=O)C3CC3)cc2OC[C@H](C)N(C(=O)CN2CCOCC2)C[C@@H]1C`, the relative growth was 1.05. `Cn1cnc(CCNC(=O)C[C@H]2CC[C@H]3[C@@H](COC[C@H](O)CN3C(=O)C3CC3)O2)c1` gave a relative growth of 0.889. For `CCCc1cc(=O)n2ncnc2[nH]1`, the relative growth was 1.27. Compound `CC(C)=CCC[C@](C)(O)C1CC=C(C)CC1` (stereo partly drawn) has a relative growth of 0.804. For `C[C@@H]1CN([C@@H](C)CO)S(=O)(=O)c2ccc(C#Cc3cccnc3)cc2O[C@H]1CN(C)C(=O)CN(C)C`, the relative growth was 0.974. Work on `Cl.NCCCCCC(=O)O` yielded a relative growth of 0.897. `CCOC(=O)[C@H](CCc1ccccc1)N[C@@H](C)C(=O)N1CCC[C@H]1C(=O)O.O=C(O)/C=C\C(=O)O` showed a relative growth of 1.03. `COC(=O)c1cccc(NC(=N)N=C(N)N)c1` gave a relative growth of 1. `CO[C@H]1C[C@@H](C[C@@H](C)[C@H]2CC(=O)[C@@H](C)/C=C(/C)[C@@H](O)[C@@H](OC)C(=O)[C@@H](C)C[C@@H](C)C=C/C=C\C=C(C)[C@H](OC)C[C@H]3CC[C@@H](C)[C@@](O)(O3)C(=O)C(=O)N3CCCC[C@@H]3C(=O)O2)CC[C@@H]1O` was tested, and the relative growth was 0.927. Compound `C[C@@H]1COC(=O)[C@@H](Cc2ccc(F)cc2)CCC=CC[C@@H](CC(=O)N[C@H](CO)Cc2ccccc2)C(=O)N1` has a relative growth of 1.08. Compound `CC(=O)NC[C@H]1C[C@@H](N(C(C)=O)S(=O)(=O)c2cccc3cncc(C)c23)CN1` has a relative growth of 0.968. `CCCCCCc1ccc(O)cc1O` was tested, and the relative growth was 0.5. `CC1(C)NC(=O)N(c2ccc([N+](=O)[O-])c(C(F)(F)F)c2)C1=O` gave a relative growth of 0.895. In the case of `COc1cccc(S(=O)(=O)N2C[C@H](O)COC[C@@H]3O[C@H](CC(=O)NCCCN4CCOCC4)CC[C@H]32)c1`, the relative growth is reported as 0.819. Work on `CCC(=O)OCC(=O)[C@@]1(OC(=O)CC)[C@@H](C)CC2C3CCC4=CC(=O)C=C[C@]4(C)C3(F)[C@@H](O)C[C@@]21C` (stereo partly drawn) yielded a relative growth of 1.06. Compound `Nc1ccc(OCC(=O)N2CCOCC2)cc1` has a relative growth of 1.02. For `NCCn1cccn1`, the relative growth was 1.02. For `C[C@H](O)C#Cc1ccc2c(c1)O[C@@H](CN(C)C(=O)CN(C)C)[C@@H](C)CN([C@@H](C)CO)S2(=O)=O`, the relative growth was 0.895. `COc1cc(OC)c2c(c1)OC(c1ccccc1)CC2=O` (stereo not drawn) showed a relative growth of 1.01. With `CCN1C(=O)[C@H]2[C@H]3[C@H](O)[C@H](O)C/C(=N\OC[C@@H](O)COCc4ccco4)[C@@H]3CC[C@H]2C1=O` the relative growth was 1.09.

— published antibiotic growth screens (doi:10.1038/s41589-023-01349-8)
